Read-outs that look alike come from different tables or passages of the source.
Molecular target: CB2R in wild-type mouse spleen membranes (Mus musculus, UniProt P47936)
Conditions: WT mouse spleen membranes

The chains behind the UniProt entries cited, without tags or fusion partners. Where a name states a change or a piece, a line headed by the entry shows the natural chain unless it says otherwise.
UniProt P47936: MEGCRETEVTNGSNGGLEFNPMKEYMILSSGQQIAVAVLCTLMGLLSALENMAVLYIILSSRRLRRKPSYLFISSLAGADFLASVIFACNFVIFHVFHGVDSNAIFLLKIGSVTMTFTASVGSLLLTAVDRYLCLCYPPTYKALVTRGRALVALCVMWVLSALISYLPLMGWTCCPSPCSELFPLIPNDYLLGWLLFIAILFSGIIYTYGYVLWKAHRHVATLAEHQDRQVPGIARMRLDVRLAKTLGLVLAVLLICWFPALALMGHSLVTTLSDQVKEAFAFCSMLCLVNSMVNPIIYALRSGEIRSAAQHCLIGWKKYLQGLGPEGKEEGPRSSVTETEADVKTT

`Cc1c(C(=O)NN2CCCCC2)nn(-c2ccc(Cl)cc2Cl)c1-c1ccc(Cl)cc1` [SR1] was tested. Which “reduction of [3H]-RNB-61 radioactivity” value (competitor 1 μM) did it give?
Its value is “did not result in a significant difference”.

How did the “reduction of [3H]-RNB-61 radioactivity” value (competitor 10 μM) turn out when `Cc1c(C(=O)c2cccc3ccccc23)c2cccc3c2n1[C@H](CN1CCOCC1)CO3` [WIN55,212–2] was run?
Its value is “significant reduction”.

Source: PMC11320734 (ACS Pharmacology & Translational Science, 2024)
